Apparent affinities of Ab-14 variants for a coronavirus HR2 peptide

Data: MIT Lincoln Laboratory AlphaSeq set, Li et al. 2023, doi:10.1038/s41467-023-39022-2, as distributed in FLAb.

Target peptide (SARS-CoV-2 spike, HR2 region): PDVDLGDISGINAS

Parent: Ab-14, a human scFv built as VH, three GGGGS repeats, VL. Only the CDRs of the heavy chain vary.
VH: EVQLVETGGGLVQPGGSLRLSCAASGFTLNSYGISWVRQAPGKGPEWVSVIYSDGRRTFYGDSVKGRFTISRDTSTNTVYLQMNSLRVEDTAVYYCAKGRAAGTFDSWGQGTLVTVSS
VL: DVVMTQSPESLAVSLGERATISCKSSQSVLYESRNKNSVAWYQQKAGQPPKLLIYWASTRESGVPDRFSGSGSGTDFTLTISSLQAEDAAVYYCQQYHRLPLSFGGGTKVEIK

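The variants were designed computationally from a first round of random CDR variants and then made and measured. Several design methods are mixed in this list. In AlphaSeq, yeast of one mating type display the scFv and yeast of the other type display the target. After mating in shaken culture at 30 °C for 16 h, diploids were selected and their barcode pairs sequenced. The ratio of observed to expected reads was calibrated, replicate by replicate, on BCL2-family standards whose Kd was known from biolayer interferometry. The assay was run in six technical replicates.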

Substitutions are numbered in sequence along the VH above, starting at 1 (not Kabat).
This list holds designs with at most six substitutions.
The Kd shown is the geometric mean over detected replicates; a lower Kd is a better binder.
A pair that was not seen in any replicate is written "nd"; this usually means weak binding, but a binder can also be missed.
Entries are sorted by rising average, undetected variants last.
The authors averaged sequences with at least three values out of six and counted those with two or fewer as poor binders.

For T28D S53A R56I D106P, the assay gave 240 pM (6 of 6 replicates; controls 0 of 18). Variant T28D S31E S53A G61I R100E gave 610 pM (6 of 6 replicates; controls 0 of 18). Variant T28D R56K A101T gave 670 pM (6 of 6 replicates; controls 2 of 18). Variant T28E R100A A101E S107T gave 830 pM (6 of 6 replicates; controls 0 of 18). For S53A R100D F105N D106Y, the assay gave 890 pM (6 of 6 replicates; controls 0 of 18). Variant S31E R100K A101T S107A showed 1.5 nM (6 of 6 replicates; controls 1 of 18). With T28D G61I S107V the result was 1.6 nM (6 of 6 replicates; controls 0 of 18). Variant T28N G61A R100Q A101L showed 1.6 nM (6 of 6 replicates; controls 1 of 18). For T28K S31E G103V S107Q, the assay gave 1.7 nM (6 of 6 replicates; controls 0 of 18).

Variant T28S F59A G61H showed 2.5 nM (6 of 6 replicates; controls 0 of 18). For S31E R56M G61S S63A R100V, the assay gave 3.0 nM (6 of 6 replicates; controls 0 of 18). For T28E S31E G61H R100K, the assay gave 3.8 nM (6 of 6 replicates; controls 0 of 18). For T28E G61S R100V, the assay gave 3.9 nM (6 of 6 replicates; controls 0 of 18). Variant G61S S63A R100E gave 4.8 nM (6 of 6 replicates; controls 0 of 18). Variant T28E S31E R100S gave 5.4 nM (6 of 6 replicates; controls 0 of 18). Variant T28Q R100T S107L showed 6.4 nM (6 of 6 replicates; controls 4 of 18). Variant G26M G61D R100Q A101L gave 9.8 nM (1 of 6 replicates; controls 0 of 18). For G26P T28D G61K R100K A101T, the assay gave 15 nM (6 of 6 replicates; controls 1 of 18).

For R56K G61D S63N R100Q A101L, the assay gave 27 nM (6 of 6 replicates; controls 0 of 18). Variant T28Y R100K A101T showed 44 nM (2 of 6 replicates; controls 0 of 18). Variant N30K G61D R100K gave 91 nM (1 of 6 replicates; controls 0 of 18). Variant T28D A101I D106K showed 260 nM (5 of 6 replicates; controls 0 of 18). For S35T F59A, the assay gave nd (0 of 6 replicates; controls 0 of 18). With T28N G61A S63A R100Q A101E the result was nd (0 of 6 replicates; controls 0 of 18). With T28D D62Q T104N D106N the result was nd (0 of 6 replicates; controls 0 of 18). With T58E F59A A101Q T104A the result was nd (0 of 6 replicates; controls 0 of 18). With T28P F59A S63D T104R S107Q the result was nd (0 of 6 replicates; controls 0 of 18).

Variant S63N A101M G103S T104A showed nd (0 of 6 replicates; controls 0 of 18). With T28A S31Q G61S A101Q the result was nd (0 of 6 replicates; controls 0 of 18). With T28H I34W A101C G103L the result was nd (0 of 6 replicates; controls 0 of 18). With D62S A102G the result was nd (0 of 6 replicates; controls 0 of 18). Variant T28W G61I A101I gave nd (0 of 6 replicates; controls 0 of 18). With Y32A R56V G61S R100A A101L D106V the result was nd (0 of 6 replicates; controls 0 of 18). Variant R57K G61A K65V T104I D106L S107D showed nd (0 of 6 replicates; controls 0 of 18). With T28E G61A R100Q S107L the result was nd (0 of 6 replicates; controls 0 of 18).

The opening 6 entries, copied out:

changes	apparent Kd	detected	empty controls
T28D S53A R56I D106P	240 pM	6/6	0/18
T28D S31E S53A G61I R100E	610 pM	6/6	0/18
T28D R56K A101T	670 pM	6/6	2/18
T28E R100A A101E S107T	830 pM	6/6	0/18
S53A R100D F105N D106Y	890 pM	6/6	0/18
S31E R100K A101T S107A	1.5 nM	6/6	1/18

Values of this round are not directly comparable with the first-round values of the same sequences.
Nonspecific signal, from three strains lacking the peptide, appeared in 1% of pairings of all heavy chain designs, centred on 120 nM (5% of these signals below 7.0 nM); values are not corrected for it. Also given: how often the same scFv was detected with the empty control strains.
The parent sequence was in this pool as ten entries: three were never detected, three once, and four in most replicates, with averages from 2.2 nM to 240 nM.